## Ab-14 light chain CDR variants: yeast mating affinities

The target is the same throughout: PDVDLGDISGINAS, from the HR2 region of SARS-CoV-2 spike.

Each scFv is VH, the linker GGGGSGGGGSGGGGS, VL, as in the parent Ab-14, and differs from it in the CDRs of the light chain only.
VH: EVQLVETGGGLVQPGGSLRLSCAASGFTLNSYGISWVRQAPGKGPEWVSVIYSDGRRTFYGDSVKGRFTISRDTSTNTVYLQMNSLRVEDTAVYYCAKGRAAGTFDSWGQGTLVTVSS
VL: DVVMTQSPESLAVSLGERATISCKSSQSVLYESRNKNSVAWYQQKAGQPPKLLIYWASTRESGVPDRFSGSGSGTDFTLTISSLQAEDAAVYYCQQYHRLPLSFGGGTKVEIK

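The starting antibody came from a phage panning campaign against this peptide. This is the validation round: designs drawn from the data on random variants, tested in the same kind of assay. Group labels follow the data file (Ctrl: baseline library sampled from a position-specific scoring matrix, with some repeated check sequences; GP: Gaussian process model; Gen: genetic algorithm; a sequence that several methods proposed may carry one label only). Affinity was read by AlphaSeq, a pooled yeast mating assay with surface-displayed partners. Binding brings cells together so that they mate, and sequencing counts the barcode pairs among the diploids. A regression on co-assayed BCL2-family reference pairs converts the normalised counts of each replicate to an apparent Kd. Mating was done six times.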

Variants are written as CDR1, CDR2 and CDR3 of the light chain (limits as in the source). Parent: KSSQSVLYESRNKNSVA, WASTRES, QQYHRLPLS.
Affinities are written as log10 Kd with Kd in nM; a lower number is a better binder.
The mean shown is taken over the replicates in which the pair was detected.
Where no diploid with the target was found in that replicate, the entry reads "n.d.": below detection, most likely a poor binder, though not proof of it.

CDR-L1	CDR-L2	CDR-L3	group	log10 Kd, replicates	mean log10 Kd (nM)	signal with controls
KFSQSTLYESRNKNSVA	WASTRES	QVYHRMPLS	Ctrl	n.d. / n.d. / n.d. / n.d. / n.d. / n.d.	n.d.	0/18
KSSQSVLYESRNKNSVA	WASTREL	MQYHEWPLS	Ctrl	n.d. / n.d. / n.d. / n.d. / n.d. / 2.01	2.01	0/18
KLSQSVLYESRNKNSVA	WASTRES	SAYHRLPLS	Ctrl	n.d. / 3.06 / n.d. / 1.95 / 2.54 / 2.64	2.55	1/18 (3.73)
KMSQSVLYESRDKNSVA	WASTRES	QQYGRLPLS	Ctrl	0.47 / 0.24 / 0.30 / 0.04 / 0.45 / 0.45	0.32	0/18
KFSQSVPQESRNKNSVA	WASTRES	QQYHRLPLS	Ctrl	0.96 / 0.60 / 0.62 / 0.63 / 0.71 / 1.18	0.78	0/18
KSSQSVLNESSNKNSVA	WASEREE	QQYHRHPLS	Ctrl	0.45 / 0.50 / 0.41 / 0.50 / 0.48 / 0.65	0.50	2/18 (2.55)
KSSGSVLYESRNKNSVA	GASTRES	QQYMRLPLS	Ctrl	-0.09 / -0.08 / 0.00 / -0.16 / -0.09 / 0.14	-0.05	0/18
KFSQSVLYESRNKNSVA	WASTRES	QQCDRLPLG	Ctrl	1.53 / 2.89 / 1.29 / 1.82 / 1.74 / 2.53	1.97	0/18
KSSQSVLNESRNKNSVA	WASTRES	QQYHRLPTS	Ctrl	n.d. / n.d. / n.d. / n.d. / 2.63 / n.d.	2.63	1/18 (3.26)
KSQQSVDYESRNKNSVA	WASTRES	QQYHRLPLS	Ctrl	1.49 / 1.29 / 1.43 / 2.63 / 1.87 / 1.79	1.75	2/18 (3.60)
KSSQSVLYDSRNKNSVA	WASTRET	QQYHRLPLS	Ctrl	2.25 / 1.50 / 1.82 / 1.53 / 1.64 / 1.72	1.74	2/18 (2.74)
KSSQSVLYESRNKNSVA	AASTRES	QQYHRLPLI	Ctrl	0.86 / 0.42 / 0.51 / 0.48 / 0.46 / 0.76	0.58	3/18 (3.33)
QSSQSVLRESRYKNSVA	WASTRES	QQVHRLPLS	Ctrl	n.d. / n.d. / n.d. / n.d. / n.d. / n.d.	n.d.	0/18
KSSQQVLTESRNKNSVA	EAGTRES	QQYHRLPLS	Ctrl	1.31 / 1.05 / 0.91 / 1.26 / 1.00 / 1.70	1.21	3/18 (2.33)
KSSQSVLYESRNVNSMA	AASTRES	QQYHMLPLS	Ctrl	1.50 / 0.87 / 0.79 / 0.74 / 0.83 / 1.06	0.97	2/18 (2.90)
KSSQSVFTESRNKNSVA	FASTRES	QHYHRLPLS	Ctrl	n.d. / n.d. / n.d. / n.d. / n.d. / n.d.	n.d.	0/18
KSSQSVLYESQNNNSVA	EASTRES	QQYHGLPLS	Ctrl	0.97 / 0.19 / 1.02 / 1.55 / 0.49 / 0.73	0.82	0/18
KSSQSWLEESRNKNSVA	WAYTREQ	QQYHRLPLS	Ctrl	1.28 / 1.60 / 1.98 / 2.27 / 1.72 / 1.32	1.69	0/18
KSSQSDLYESRNKNSVA	DASTRES	QQYHRLPLS	Ctrl+GP_Gen	0.26 / 0.35 / 0.20 / 0.25 / -0.02 / 0.38; -0.31 / -0.13 / -0.40 / -0.47 / -0.41 / -0.43	-0.06	0/36
KSEQSVLYEGRNKNSVA	WGSTRIS	QQYHRLPLS	Ctrl	1.16 / 1.27 / 1.37 / 1.31 / 0.89 / 1.71	1.29	3/18 (1.90)
KSSQSVLYESRNMISVA	QASTRES	QQYHTLHLS	Ctrl	n.d. / n.d. / n.d. / n.d. / n.d. / n.d.	n.d.	0/18
KVSQSVLYESDNKNSVA	WASTRES	QQYHRLHLS	Ctrl	1.19 / 1.26 / 0.51 / 1.63 / 0.35 / 1.12	1.01	0/18
KSSQSVGYESRNKNSVA	WASTRES	QQYYRLPLS	Ctrl	n.d. / n.d. / n.d. / n.d. / n.d. / n.d.	n.d.	0/18
KSSQHVLGESRNKNSVA	AASTRES	QQYHRLPLS	Ctrl	0.74 / 0.91 / 1.46 / 1.07 / 0.92 / 0.84	0.99	1/18 (1.68)
KSSQSVLRESRNKNSVA	WVSTRES	QQYHRLPLS	Ctrl	n.d. / n.d. / n.d. / n.d. / n.d. / n.d.	n.d.	1/18 (1.98)
KQSQSVLYESRNQNSVA	WASTRES	QQYHRLPLS	Ctrl	1.48 / 1.90 / 1.73 / 1.33 / 1.74 / 1.75	1.66	0/18
KLQQSVLYESTDKNSVA	WASTRES	QQYHRLPLS	Ctrl	1.48 / 1.06 / 1.38 / 1.40 / 1.07 / 2.03	1.40	1/18 (3.69)
KSSMSVLYESRDKNSVA	WASTRES	QQYHRLPLS	Ctrl	n.d. / n.d. / n.d. / n.d. / 2.39 / 2.56	2.47	2/18 (2.19)
KSSQSVLYESRNENSVA	WASTRES	QQYVRLPLS	Ctrl	n.d. / n.d. / n.d. / n.d. / n.d. / n.d.	n.d.	0/18
KSSQSVLYESRNVNSVA	WASTRES	QQYQRLPLS	Ctrl	2.43 / 1.79 / n.d. / 2.86 / 2.71 / 2.54	2.47	0/18
KSSQSGLMESRNANSVA	WASTRES	QQYHRLPLS	Ctrl	1.55 / 1.06 / 1.47 / 0.90 / 1.34 / 1.66	1.33	0/18
KSSQSVLYESRNHNSVA	DASTRES	QQYHRLPLS	Ctrl	0.05 / -0.03 / -0.20 / 0.04 / -0.28 / 0.27	-0.03	0/18
KSSQSVLQESDNTNSVA	WASTRES	QQYHRLPLS	Ctrl	0.54 / 1.06 / 0.92 / 1.04 / 0.74 / 1.28	0.93	0/18
KSSQSVLYESRNGNSVA	WASTRES	QQYHRLPLS	Ctrl	2.36 / 2.23 / 1.74 / 2.17 / 1.98 / 2.23	2.12	1/18 (2.01)
KSSQSNLYESRNKNSVA	AASTRES	QQYHRLPLS	Ctrl	0.15 / 0.38 / 0.21 / -0.23 / 0.22 / 0.25	0.16	2/18 (2.44)
RSSQSVLYESRNSNSVA	DASTRES	QQYHRLPLS	Ctrl	0.74 / 0.60 / 0.31 / 0.50 / 0.80 / 0.70	0.61	0/18
KMSKSVLYESRNKNSVA	WASTRES	QQYHRLPLS	Ctrl	0.66 / 1.44 / 0.59 / 0.75 / 1.09 / 1.16	0.95	0/18
KSSQSVLYESRNKNNVA	NASTRES	QQYHRLPLS	Ctrl	0.03 / -0.09 / 0.09 / 0.03 / -0.15 / 0.13	0.01	0/18
KSSQSVLYESRNKNSVA	WASTRES	QQYHRLPLI	Ctrl	n.d. / 2.74 / 3.10 / 2.16 / n.d. / 1.91	2.48	1/18 (2.44)
KSSHSVLYNSRNKNSVA	WASTRES	QQYHRLPLS	Ctrl	1.79 / 1.59 / 1.62 / 1.29 / 1.68 / n.d.	1.59	0/18
KSSQSVLYESRNKNSVA	WASTREN	QAYSRLPLS	Ctrl	n.d. / n.d. / n.d. / 2.48 / n.d. / n.d.	2.48	0/18
KSSQAVLYESRNKNPVA	WASTRES	QQVHRLPLS	Ctrl	n.d. / n.d. / n.d. / n.d. / n.d. / n.d.	n.d.	0/18
KLSQSVLAESRNKKSVA	TASTRES	QQYHSLPLS	Ctrl	0.75 / 0.53 / 0.87 / 0.37 / 0.54 / 0.73	0.63	1/18 (3.10)
KSSNSVLYESRNKNSVA	WASTRES	QQKHRLPLS	Ctrl	n.d. / n.d. / n.d. / n.d. / n.d. / n.d.	n.d.	0/18
KISQSVLYESVNKNSVA	WASTRES	QQYHRLPLS	Ctrl	0.53 / 0.48 / 0.57 / 0.53 / 0.85 / 0.92	0.65	0/18
KSSQDVLRESLNKNAVA	WASTRES	QQYHRLPLS	Ctrl	n.d. / 2.00 / 1.93 / 1.83 / 2.06 / n.d.	1.95	0/18
KFSQGVLDESTNKNSVA	RASTRES	QQYHRLPLS	Ctrl	0.32 / 0.47 / 0.36 / 0.25 / 0.28 / 0.58	0.38	3/18 (3.52)
KSSQSVLYESRNKNSVA	QATTRES	QQYHRLPLS	Ctrl	0.65 / 0.74 / 0.22 / 0.39 / 0.07 / 0.51	0.43	0/18
KSSQSVLYESRNKNSVA	AASTREL	QQYARLPLS	Ctrl	1.03 / 0.30 / 0.10 / -0.09 / 0.17 / 0.49	0.33	0/18
KSSFGVLYESRNKNSVA	WASTRES	QQYHRLPLS	Ctrl	n.d. / n.d. / n.d. / n.d. / n.d. / 2.67	2.67	1/18 (2.31)
VSAQLVLCEDRNKNSVA	WASTRES	QQYHRLPIS	Ctrl	n.d. / n.d. / n.d. / n.d. / n.d. / n.d.	n.d.	0/18
KSSQSVRYESRNKNSVA	EASTRES	QQYHHLPLS	Ctrl	0.60 / 0.40 / 0.58 / 0.39 / 0.42 / 0.59	0.50	0/18

Three control strains display no target. For all light chain designs, 4% of the pairings with them gave a signal, with a median of 2.64 and one signal in twenty below 1.59, so weak values seen in few replicates may be background. Also given: how often the same scFv was detected with the empty control strains, with their mean in brackets.
In the paper, a design with two or fewer of six values counts as a poor binder.
A sequence that the file lists under several names has all its replicates listed entry by entry, parted by semicolons.
Values of this round are not directly comparable with the first-round values of the same sequences.

The measurements come from Li et al. 2023 (doi:10.1038/s41467-023-39022-2) through the FLAb antibody collection.